# In PubChem BioAssay AID743247 (Broad Institute, 2014):
# The list shows a part of the results, in another mix than the full data. The source made the active and inactive calls.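 Rule for the calls: active = mean inhibition across replicates of 30% or more, regardless of how many single replicates reach that level; inconclusive = mean under 30% yet at least half of replicates reach 30%; inactive = the rest.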
# Test: blockers of fibronectin fibrillogenesis by fibroblasts – AH1F cells, Alexa488-fibronectin fluorescence, plate reader, primary screen (AID 743247);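 note: positive control wells lacked labelled fibronectin entirely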
# Conditions: Alexa488-fibronectin deposition fluorescence, overnight, at 12.6 µM, active compounds read high
# How it was run: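 Schedule: 1 h cell adhesion before compound, then overnight fibronectin incubation; test system: AH1F fibroblast monolayer depositing Alexa488-labelled fibronectin into matrix; quantity: 10000 AH1F cells per well; probe or stimulus: fluorescent fibronectin at 24 nM final; signal: fluorescence, ex 485 nm, em 525 nm; evaluation: percent inhibition as loss of matrix-bound fibronectin fluorescence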
row,SMILES,inhibition
1,COc1ccc(NC2CCN(CCc3ccccc3)CC2)c(OC)c1,inactive: -5.46%
2,CCOC(=O)N1CCC(Nc2ccc(F)cc2)CC1,inactive: -5.37%
3,O=C(NCC1(N2CCCCC2)CCCCC1)c1ccc(F)cc1,inactive: -0.71%
4,CCCCn1nnnc1C(c1cc2ccccc2o1)N1CCC(n2c(=O)[nH]c3ccccc32)CC1 (stereo not given),inactive: 12.3%
5,O=P1(N(CCCl)CCCl)SCCCS1,inactive: -2.91%
6,CCCCOc1ccc(C(=O)NCC2(N3CCOCC3)CCCCC2)cc1,inactive: 8.38%
7,CCOc1ccc(C)cc1CN(CCCl)CCCl,inactive: -7.84%
8,CC(C)(C)n1nnnc1C(c1ccccc1)N1CCC(n2c(=O)[nH]c3ccccc32)CC1 (stereo not given),inactive: 7.15%
9,COc1cc(C(=O)NCC2(N(C)C)CCCCC2)ccc1OC(F)F,inactive: 0.463%
10,CCOC(=O)N1CCC(Nc2cccc(C)c2)CC1,inactive: -6.95%
11,O=c1[nH]c2ccccc2n1C1CCN(C(c2ccccc2)c2nnnn2C2CCCCC2)CC1 (stereo not given),inactive: 0.43%
12,Cc1cccc(NC2(C#N)CCN(Cc3ccccc3)CC2)c1,inactive: 4.56%
13,CSc1ccccc1C(=O)NCC1(N2CCCCC2)CCCCC1,inactive: -7.67%
14,CCCCn1nnnc1C(c1cccs1)N1CCC(n2c(=O)[nH]c3ccccc32)CC1 (stereo not given),inactive: 6.77%
15,CCCCn1nnnc1C(CC)N1CCC(n2c(=O)[nH]c3ccccc32)CC1 (stereo not given),inactive: 2.4%
16,O=C(NCC1(N2CCCCC2)CCCCC1)c1ccc(=O)[nH]c1,inactive: -17.9%
17,CCC(c1nnnn1C1CCCC1)N1CCC(n2c(=O)[nH]c3ccccc32)CC1 (stereo not given),inactive: -5.2%
18,COc1ccc(C(=O)NCC2(N3CCCCC3)CCCCC2)c(OC)c1OC,inactive: -27.7%
19,CC(C)(C)OC(=O)N1CCC(N(C(=O)c2ccccc2)c2ccc(F)cc2)CC1,inactive: -0.795%
20,COc1ccc(C(=O)NCC2(N3CCCCC3)CCCCC2)cc1,inactive: -1.73%

row,SMILES,inhibition
1,CCCCn1nnnc1C(c1ccc(OC)cc1)N1CCC(n2c(=O)[nH]c3ccccc32)CC1 (stereo not given),inactive: -2.45%
2,CCOC(=O)N1CCC(Nc2ccc(OC)cc2)CC1,inactive: 13.5%
3,COc1ccc(Cl)cc1C(=O)NCC1(N2CCOCC2)CCCCC1,inactive: -4.61%
4,O=C(NCC1(N2CCCCC2)CCCCC1)c1ccc(Cl)s1,inactive: -12.3%
5,N#CC1(Nc2ccccc2)CCN(Cc2ccccc2)CC1,inactive: -2.94%
6,Cc1cc(C)cc(N(C(=O)c2ccccc2)C2CCN(C(=O)OC(C)(C)C)CC2)c1,inactive: -16.5%
7,O=c1[nH]c2ccccc2n1C1CCN(C(c2ccccc2OC(F)(F)F)c2nnnn2C2CCCCC2)CC1 (stereo not given),inactive: -4.01%
8,O=C(NCC1(N2CCCCC2)CCCCC1)c1ccc(Cl)nc1,inactive: -14.2%
9,CCCCn1nnnc1C(c1ccnc2ccccc12)N1CCC(n2c(=O)[nH]c3ccccc32)CC1 (stereo not given),inactive: -5.98%
10,O=C(NCC1(N2CCOCC2)CCCCC1)c1cc(F)c(F)cc1Cl,inactive: 3.71%
11,CCC(c1nnnn1C(C)(C)C)N1CCC(n2c(=O)[nH]c3ccccc32)CC1 (stereo not given),inactive: 6.31%
12,COc1cc(OC)c(C(=O)NCC2(N(C)C)CCCCC2)cc1OC,inactive: -14.8%
13,CN(C)c1cccc(C(=O)NCC2(N3CCCCC3)CCCCC2)c1,inactive: -7.12%
14,COc1ccc(CN(CCCl)CCCl)cc1Cl,inactive: -1.6%
15,CC(C)c1ccc(NC2CCN(C(=O)OC(C)(C)C)CC2)cc1,inactive: -1.44%
16,CCCOc1ccc(C(=O)NCC2(N(C)C)CCCCC2)cc1OC,inactive: -9.31%
17,COc1ccc(C(c2nnnn2C2CCCC2)N2CCC(n3c(=O)[nH]c4ccccc43)CC2)cc1 (stereo not given),inactive: -7.18%
18,O=C(NCC1(N2CCCCC2)CCCCC1)c1cncc(Br)c1,inactive: -3.56%
19,O=C(NCC1(N2CCCCC2)CCCCC1)c1cccc([N+](=O)[O-])c1,inactive: -0.398%
20,CSc1ccc(C(=O)NCC2(N3CCOCC3)CCCCC2)cc1,inactive: 0.171%

row,SMILES,inhibition
1,O=c1[nH]c2ccccc2n1C1CCN(C(c2ccccc2OC(F)(F)F)c2nnnn2C2CCCC2)CC1 (stereo not given),inactive: -2.25%
2,CCN1CCC(Nc2ccc(Cl)cc2)CC1,inactive: 6.79%
3,O=C(NCC1(N2CCCCC2)CCCCC1)c1ccc(OC(F)F)cc1,inactive: 12.8%
4,CN1CCN(CCOC(=O)C(O)(c2ccccc2)c2ccccc2)CC1,inactive: 2.38%
5,COc1ccc(NC2CCN(C(=O)OC(C)(C)C)CC2)cc1,inactive: 0.976%
6,CC(C)c1ccc(C(=O)NCC2(N3CCOCC3)CCCCC2)cc1,inactive: -7.46%
7,COc1cc(C(=O)NCC2(N3CCCCC3)CCCCC2)ccc1OC(F)F,inactive: 3.05%
8,O=C(NCC1(N2CCCCC2)CCCCC1)c1cccc(C(F)(F)F)c1,inactive: -1.86%
9,CC(C)(C)OC(=O)N1CCC(N(C(=O)c2ccccc2)c2ccc(Cl)cc2)CC1,inactive: -7.13%
10,N#Cc1ccc(C(=O)NCC2(N3CCCCC3)CCCCC2)cc1,inactive: -4.17%
11,O=c1[nH]c2ccccc2n1C1CCN(C(c2ccccc2)c2nnnn2C2CCCC2)CC1 (stereo not given),inactive: 3.74%
12,CCCN1CCC(Nc2cc(OC)cc(OC)c2)CC1,inactive: 2.37%
13,Cc1cc(N(CCCl)CCCl)ccc1C=O,inactive: -6.18%
14,c1ccc(CN2CCC(Nc3ccccc3)CC2)cc1,inactive: 0.946%
15,C/C(N)=N\P(=O)(Oc1ccccc1)Oc1ccccc1,inactive: 1.8%
16,CN(C)C1(CNC(=O)c2cccc(C#N)c2)CCCCC1,inactive: -2.16%
17,O=c1[nH]c2ccccc2n1C1CCN(C(c2ccnc3ccccc23)c2nnnn2C2CCCC2)CC1 (stereo not given),inactive: -10%
18,O=c1[nH]c2ccccc2n1C1CCN(C(c2cccs2)c2nnnn2C2CCCCC2)CC1 (stereo not given),inactive: -57.1%
19,COc1cc(C(=O)NCC2(N3CCOCC3)CCCCC2)cc(OC)c1C,inactive: 6.16%
20,CCCCn1nnnc1C(c1ccccc1)N1CCC(n2c(=O)[nH]c3ccccc32)CC1 (stereo not given),inactive: -3.17%
